Measured values published in PubChem BioAssay (NCATS).
Values joined by “and” are separate entries in the source; they are usually repeats but may differ in a detail not shown here. Identical values can stand only once. For part of these data: Shown are results outside the selection of hits, which stands elsewhere. Inconclusive results are not listed. Only a part is listed here, and it is no random draw. More than one record can exist for a structure, and the calls need not agree. Active and inactive are the calls of the source. The call rests on the fitted dose curve; in most records, active means well fitted curve in the direction sought with a large enough effect; inconclusive means small, poorly fitted or top-dose-only effect, or another doubt; inactive means no such curve, though single readings can be large; an effect the other way counts as inactive or inconclusive.

Chains of the proteins cited; added tags and fusions are not shown. Lines headed by an entry give the natural chain unless they say otherwise; changes in a name come on top.
UniProt P11712, whole entry, looked up: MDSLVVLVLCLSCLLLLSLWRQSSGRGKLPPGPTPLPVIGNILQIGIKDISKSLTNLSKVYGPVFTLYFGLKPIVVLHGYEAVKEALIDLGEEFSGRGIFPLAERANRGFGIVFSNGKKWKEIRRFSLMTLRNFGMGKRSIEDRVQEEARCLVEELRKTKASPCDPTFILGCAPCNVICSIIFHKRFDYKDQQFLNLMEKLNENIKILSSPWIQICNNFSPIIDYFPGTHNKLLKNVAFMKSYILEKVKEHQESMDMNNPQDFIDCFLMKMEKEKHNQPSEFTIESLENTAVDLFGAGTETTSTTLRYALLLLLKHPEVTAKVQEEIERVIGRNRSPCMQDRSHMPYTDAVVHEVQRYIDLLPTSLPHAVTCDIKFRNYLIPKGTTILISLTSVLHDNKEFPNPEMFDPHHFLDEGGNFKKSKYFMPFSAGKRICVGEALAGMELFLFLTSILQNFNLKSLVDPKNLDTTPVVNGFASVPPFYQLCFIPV
UniProt P10635, whole entry, looked up: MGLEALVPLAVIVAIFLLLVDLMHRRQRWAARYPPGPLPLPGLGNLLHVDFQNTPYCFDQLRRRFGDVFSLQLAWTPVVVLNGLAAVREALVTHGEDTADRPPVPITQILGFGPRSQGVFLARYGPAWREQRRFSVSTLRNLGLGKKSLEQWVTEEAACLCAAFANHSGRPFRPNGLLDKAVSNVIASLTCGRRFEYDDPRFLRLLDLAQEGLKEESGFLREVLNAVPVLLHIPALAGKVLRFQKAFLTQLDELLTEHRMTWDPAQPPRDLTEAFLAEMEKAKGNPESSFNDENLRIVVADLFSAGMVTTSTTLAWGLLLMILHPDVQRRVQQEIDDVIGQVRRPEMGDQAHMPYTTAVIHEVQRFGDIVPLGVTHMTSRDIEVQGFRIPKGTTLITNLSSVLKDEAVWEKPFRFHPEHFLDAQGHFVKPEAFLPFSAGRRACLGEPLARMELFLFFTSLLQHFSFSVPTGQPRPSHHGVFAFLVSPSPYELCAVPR
UniProt P33261, whole entry, looked up: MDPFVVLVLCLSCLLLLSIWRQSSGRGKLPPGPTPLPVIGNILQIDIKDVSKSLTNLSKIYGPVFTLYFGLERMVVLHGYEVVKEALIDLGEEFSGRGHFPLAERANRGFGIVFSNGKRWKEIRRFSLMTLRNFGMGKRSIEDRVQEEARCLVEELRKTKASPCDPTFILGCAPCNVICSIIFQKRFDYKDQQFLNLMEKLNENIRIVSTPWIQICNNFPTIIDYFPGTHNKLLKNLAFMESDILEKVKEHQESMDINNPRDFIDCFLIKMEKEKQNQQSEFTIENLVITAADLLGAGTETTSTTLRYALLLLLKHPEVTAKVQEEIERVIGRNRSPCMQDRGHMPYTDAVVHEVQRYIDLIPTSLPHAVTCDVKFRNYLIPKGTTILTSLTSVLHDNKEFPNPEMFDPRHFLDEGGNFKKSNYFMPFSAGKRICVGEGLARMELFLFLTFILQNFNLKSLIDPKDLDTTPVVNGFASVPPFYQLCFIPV
UniProt Q12809: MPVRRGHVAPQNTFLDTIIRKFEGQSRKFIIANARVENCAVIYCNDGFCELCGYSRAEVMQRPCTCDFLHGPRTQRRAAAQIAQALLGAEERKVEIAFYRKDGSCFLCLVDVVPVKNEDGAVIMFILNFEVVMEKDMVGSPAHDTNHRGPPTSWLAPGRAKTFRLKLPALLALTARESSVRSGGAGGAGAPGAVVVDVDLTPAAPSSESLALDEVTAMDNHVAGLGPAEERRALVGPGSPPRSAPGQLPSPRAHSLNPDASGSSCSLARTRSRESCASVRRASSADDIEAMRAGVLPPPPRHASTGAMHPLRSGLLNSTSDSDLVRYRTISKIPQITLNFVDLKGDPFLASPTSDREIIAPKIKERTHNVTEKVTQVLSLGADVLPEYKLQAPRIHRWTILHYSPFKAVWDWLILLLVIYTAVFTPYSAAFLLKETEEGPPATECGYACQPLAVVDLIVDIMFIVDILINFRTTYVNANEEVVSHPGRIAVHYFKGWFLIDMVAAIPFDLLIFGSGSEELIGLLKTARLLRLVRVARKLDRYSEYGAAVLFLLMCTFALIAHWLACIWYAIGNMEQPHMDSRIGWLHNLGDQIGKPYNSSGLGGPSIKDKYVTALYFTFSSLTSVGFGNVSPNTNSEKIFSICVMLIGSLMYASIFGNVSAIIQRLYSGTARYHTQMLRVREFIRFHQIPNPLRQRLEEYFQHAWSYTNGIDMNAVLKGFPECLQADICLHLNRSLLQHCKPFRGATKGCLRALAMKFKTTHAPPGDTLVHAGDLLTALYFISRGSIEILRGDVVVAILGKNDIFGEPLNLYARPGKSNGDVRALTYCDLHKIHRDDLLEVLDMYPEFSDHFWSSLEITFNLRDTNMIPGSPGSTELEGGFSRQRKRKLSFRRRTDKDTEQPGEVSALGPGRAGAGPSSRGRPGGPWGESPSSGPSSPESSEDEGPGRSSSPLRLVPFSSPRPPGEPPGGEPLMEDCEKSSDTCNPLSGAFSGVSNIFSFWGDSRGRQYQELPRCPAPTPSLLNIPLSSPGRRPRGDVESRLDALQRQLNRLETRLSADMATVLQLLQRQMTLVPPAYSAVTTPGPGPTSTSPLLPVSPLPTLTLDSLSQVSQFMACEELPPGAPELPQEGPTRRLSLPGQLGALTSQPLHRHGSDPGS

Molecular target: Cytochrome P450 2C9 (Homo sapiens) (UniProt P11712)
Experiment: qHTS Assay for Inhibitors and Substrates of Cytochrome P450 2C9 (AID 883); further: on the % scale 0 is the no-effect control and ±100 the full control effect; nearly all actives have a fitted effect of over 60% in size
Conditions: recombinant CYP2C9, luciferin-H luminescence, 60 min; at 57.1 µM (top of the series) unless noted

Row | SMILES | activity change, negative = inhibition
1 | O=C(O)CCCC[C@H]1SC[C@H]2NC(=O)N[C@@H]21 | inactive: 0.821% [at 25.6 µM]
2 | O=C(O)CCCC[C@@H]1SC[C@H]2NC(=O)N[C@H]12 | inactive: 0.505%
3 | COc1cccc2c1C(=O)c1c(O)c3c(c(O)c1C2=O)C[C@@](O)(C(C)=O)C[C@@H]3O[C@H]1C[C@H](N)[C@H](O)[C@H](C)O1 | inactive: -3.75%
4 | COc1cccc2c1C(=O)c1c(O)c3c(c(O)c1C2=O)C[C@](O)(C(C)=O)C[C@H]3O[C@@H]1C[C@H](N)[C@H](O)[C@H](C)O1 | inactive: 0.745% [at 25.6 µM]

Molecular target: Cytochrome P450 2D6 (Homo sapiens) (UniProt P10635)
Experiment: qHTS Assay for Inhibitors and Substrates of Cytochrome P450 2D6 (AID 891); further: nearly all actives have a fitted effect of over 60% in size; further: potency means the concentration at half of the fitted maximal effect;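 on activity change, negative = inhibition: luciferin methyl ether substrate demethylated by CYP2D6 with NADPH regeneration; on the % scale 0 is the no-effect control and ±100 the full control effect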
Conditions: recombinant CYP2D6, luciferin-ME EGE luminescence; series mostly up to 57.1 µM

Row | SMILES | Potency
5 | O=C(O)CCCC[C@H]1SC[C@H]2NC(=O)N[C@@H]21 | inactive
6 | C#C[C@@]1(O)CC[C@H]2[C@H]3CCC4=Cc5oncc5C[C@]4(C)[C@@H]3CC[C@@]21C | active: 25.1 µM
7 | O=C(O)CCCC[C@@H]1SC[C@H]2NC(=O)N[C@H]12 | inactive
8 | Nc1ccc(S(=O)(=O)Nc2ccnn2-c2ccccc2)cc1 | inactive

Molecular target: Cytochrome P450 2C19 (Homo sapiens) (UniProt P33261)
Experiment: qHTS Assay for Inhibitors and Substrates of Cytochrome P450 2C19 (AID 899); further: nearly all actives have a fitted effect of over 60% in size; further: potency means the concentration at half of the fitted maximal effect
Conditions: recombinant CYP2C19, luciferin-H EGE luminescence; series mostly up to 57.1 µM

Row | SMILES | Potency
9 | CCN(CC)C(=S)SSC(=S)N(CC)CC | active: 5.01 µM and active: 794 nM
10 | O=C(O)CCCC[C@H]1SC[C@H]2NC(=O)N[C@@H]21 | inactive
11 | O=C(O)CCCC[C@@H]1SC[C@H]2NC(=O)N[C@H]12 | inactive
12 | COc1cccc2c1C(=O)c1c(O)c3c(c(O)c1C2=O)C[C@@](O)(C(C)=O)C[C@@H]3O[C@H]1C[C@H](N)[C@H](O)[C@H](C)O1 | inactive
13 | COc1cccc2c1C(=O)c1c(O)c3c(c(O)c1C2=O)C[C@](O)(C(C)=O)C[C@H]3O[C@@H]1C[C@H](N)[C@H](O)[C@H](C)O1 | inactive

Molecular target: Voltage-gated inwardly rectifying potassium channel KCNH2 (Homo sapiens) (UniProt Q12809)
Experiment: qHTS Assay for Small Molecule Inhibitors of the Human hERG Channel Activity (AID 588834);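 further: potency means the concentration at half of the fitted maximal effect; lower thallium flux fluorescence means stronger hERG block; nearly all actives have a fitted effect of over 50% in size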
Conditions: U2OS BacMam hERG, FluxOR thallium flux fluorescence

Row | SMILES | Potency
14 | CNCCCN1c2ccccc2CCc2ccccc21 | active: 20 µM
15 | CC(C)COCC(CN(Cc1ccccc1)c1ccccc1)N1CCCC1 (stereo not drawn) | active: 0.398 µM
16 | O[C@@H](c1cc(C(F)(F)F)nc2c(C(F)(F)F)cccc12)[C@H]1CCCCN1 | active: 10 µM
17 | C1CCC(C(CC2CCCCN2)C2CCCCC2)CC1 (stereo not drawn) | active: 15.8 µM
18 | CN1CCCCC1CCN1c2ccccc2Sc2ccc(S(C)=O)cc21 (stereo not drawn) | active: 8.91 µM
